Structures are written as SMILES. pIC50: −log10 of the molar value.

Protein sequences, listed by entry. Tags and fused reporters are not part of them. Residues count along the entry.
UniProt P00761, 9-231: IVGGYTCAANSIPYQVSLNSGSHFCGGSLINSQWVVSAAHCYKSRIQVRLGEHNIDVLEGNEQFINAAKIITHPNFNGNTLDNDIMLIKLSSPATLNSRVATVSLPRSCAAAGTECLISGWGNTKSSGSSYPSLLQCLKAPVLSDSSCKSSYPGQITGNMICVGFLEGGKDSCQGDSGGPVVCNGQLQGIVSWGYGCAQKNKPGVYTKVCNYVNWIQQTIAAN

The first assay concerns the target Trypsin (type IX from porcine pancreas) (Sus scrofa, UniProt P00761). Kind of assay: Trypsin Assay.
Conditions: not given
In the case of `CC(C)Nc1nc(Cl)c(-c2cc(N)cc(C(=O)NCc3ccccc3)c2)n(CC(=O)NCc2ccc(C(=N)N)cc2)c1=O` [Example 128-9], the negative logarithm of the IC50 (pIC50) (usually the negative decadic logarithm of the IC50, by convention in mol/L) was 7.39.
`CC(C)Nc1nc(Cl)c(-c2cc(N)cc(C(=O)NCc3ccccc3Cl)c2)n(CC(=O)NCc2ccc(C(=N)N)cc2)c1=O` [Example 128-10] gave a pIC50 of 7.29.
On the same count and under the same terms, in the case of `CC(C)Nc1nc(Cl)c(-c2cc(N)cc(C(=O)NCc3ccccc3C(F)(F)F)c2)n(CC(=O)NCc2ccc(C(=N)N)cc2)c1=O` [Example 128-11] it was 7.27; in that of `CC(C)Nc1nc(Cl)c(-c2cc(N)cc(C(=O)NCc3cccc(F)c3)c2)n(CC(=O)NCc2ccc(C(=N)N)cc2)c1=O` [Example 128-12], 7.21.
For the compound `CC(C)Nc1nc(Cl)c(-c2cc(N)cc(C(=O)NCc3cccc(C(F)(F)F)c3)c2)n(CC(=O)NCc2ccc(C(=N)N)cc2)c1=O` [Example 128-13], the pIC50 is 6.74.
On the same count and under the same terms, the same measure for `CC(C)CNC(=O)c1cc(N)cc(-c2c(Cl)nc(NC(C)C)c(=O)n2CC(=O)NCc2ccc(C(=N)N)cc2)c1` [Example 128-14]: 7.44; for `CC(C)Nc1nc(Cl)c(-c2cc(N)cc(C(=O)NC3CCC3)c2)n(CC(=O)NCc2ccc(C(=N)N)cc2)c1=O` [Example 128-15]: 7.44; for `CC(C)Nc1nc(Cl)c(-c2cc(N)cc(C(=O)NC3CCCC3)c2)n(CC(=O)NCc2ccc(C(=N)N)cc2)c1=O` [Example 128-16]: 7.43.
The same measure, in the same setting: the same measure for `CC(C)Nc1nc(Cl)c(-c2cc(N)cc(C(=O)NC3CCCCCC3)c2)n(CC(=O)NCc2ccc(C(=N)N)cc2)c1=O` [Example 128-17]: 7.30; for `CC(C)Nc1nc(Cl)c(-c2cc(N)cc(C(=O)NCc3cccnc3)c2)n(CC(=O)NCc2ccc(C(=N)N)cc2)c1=O` [Example 128-18]: 7.03.
The same measure, in the same setting: in the case of `CC(C)Nc1nc(Cl)c(-c2cc(N)cc(C(=O)NCc3ccccn3)c2)n(CC(=O)NCc2ccc(C(=N)N)cc2)c1=O` [Example 128-19] it was 6.88; in that of `COc1ccc(CCNC(=O)c2cc(N)cc(-c3c(Cl)nc(NC(C)C)c(=O)n3CC(=O)NCc3ccc(C(=N)N)cc3)c2)cc1` [Example 128-20], 7.09.
For `CC(C)Nc1nc(Cl)c(-c2cc(N)cc(C(=O)NCCCc3ccccc3)c2)n(CC(=O)NCc2ccc(C(=N)N)cc2)c1=O` [Example 128-21], the pIC50 was 6.94.
The same measure, in the same setting: in the case of `CC(C)Nc1nc(Cl)c(-c2cc(N)cc(C(=O)NCC(c3ccccc3)c3ccccc3)c2)n(CC(=O)NCc2ccc(C(=N)N)cc2)c1=O` [Example 128-22] it was 6.81; in that of `CC(C)Nc1nc(Cl)c(-c2cc(N)cc(C(=O)NCc3ccc4ccccc4c3)c2)n(CC(=O)NCc2ccc(C(=N)N)cc2)c1=O` [Example 128-23], 7.11; in that of `CC(C)Nc1nc(Cl)c(-c2cc(N)cc(C(=O)NC3CCc4ccccc4C3)c2)n(CC(=O)NCc2ccc(C(=N)N)cc2)c1=O` (centres unmarked) [Example 128-24], 7.22.
Same read-out and setting: in the case of `CC(CNc1nc(Cl)c(-c2cccc(N)c2)n(CC(=O)NCc2ccc(C(=N)N)cc2)c1=O)C(=O)O` (centres unmarked) [Example 129] it was 7.29.
`N=C(N)c1ccc(S(=O)(=O)NCCn2c(-c3cccc(N)c3)c(Cl)nc(NC3CCC3)c2=O)cc1` [Example 137] gave a negative logarithm of the IC50 (pIC50) of 5.04.
The same measure, in the same setting: the same measure for `N=C(N)c1ccc(Cc2cccc(-n3c(-c4cccc(N)c4)c(Cl)nc(NC4CCC4)c3=O)c2)cc1` [Example 138]: 6.15.
As for `N=C(N)c1ccc(CNCCn2c(-c3cccc(N)c3)c(Cl)nc(NC3CCC3)c2=O)cc1` [Example 139], the negative logarithm of the IC50 (pIC50) is 6.14.
On the same count and under the same terms, the same measure for `N=C(N)c1ccc(COCCn2c(-c3cccc(N)c3)c(Cl)nc(NC3CCC3)c2=O)cc1` [Example 140]: 5.93; for `N=C(N)c1ccc(CCC(=O)Cn2c(-c3cccc(N)c3)c(Cl)nc(NC3CCC3)c2=O)cc1` [Example 142]: 6.90; for `N=C(N)c1ccc(C(O)CCCn2c(-c3cccc(N)c3)c(Cl)nc(NC3CCC3)c2=O)cc1` (centres unmarked) [Example 143]: 5.58.
The compound `Nc1cccc(-c2c(Cl)nc(NC3CCC3)c(=O)n2CC(=O)NCc2ccc3[nH]cnc3c2)c1` [Example 146] had a negative logarithm of the IC50 (pIC50) of 4.67.
For `Nc1cccc(-c2c(Cl)nc(NC3CCC3)c(=O)n2CC(=O)NCc2ccc3ccnc(N)c3c2)c1` [Example 147], the pIC50 is less than 4.52.
Same read-out and setting: the same measure for `CC(C)Nc1nc(Cl)c(-c2cccc(N)c2)n(CC(=O)NCC2CCC(C(=N)N)C=N2)c1=O` (centres unmarked) [Example 150]: 6.55; for `N=C(NC(=O)OCc1ccccc1)c1ccc(CNC(=O)Cn2c(-c3cccc(N)c3)c(Cl)nc(NC3CCC3)c2=O)cc1` [Example 151]: 6.42; for `CC(C)Nc1nc(Cl)c(-c2cccc(N)c2)n(CC(=O)NNc2ccc(C(=N)N)cc2)c1=O` [Example 157]: 7.05.
Compound `Nc1ccc(CNC(=O)Cn2c(-c3cccc(N)c3)c(Cl)nc(NC3CCC3)c2=O)cc1` [Example 158] showed a negative logarithm of the IC50 (pIC50) of less than 4.52.
The same measure, in the same setting: in the case of `N=C(NCc1ccccc1)c1ccc(CNC(=O)Cn2c(-c3cccc(N)c3)c(Cl)nc(NC3CCC3)c2=O)cc1` [Example 160] it was 4.56; in that of `CC(C)NC(=N)c1ccc(CNC(=O)Cn2c(-c3cccc(N)c3)c(Cl)nc(NC3CCC3)c2=O)cc1` [Example 161], 4.05.
Same read-out and setting: in the case of `COCCNC(=N)c1ccc(CNC(=O)Cn2c(-c3cccc(N)c3)c(Cl)nc(NC3CCC3)c2=O)cc1` [Example 163] it was 4.23.

The same assay, now with this note: 1 h, read-out: % Inhibition Trpysin II (30 µM).
In the case of `N=C(N)c1ccc(NC(=O)Cn2c(-c3cccc(N)c3)c(Cl)nc(NC3CCC3)c2=O)cc1` [Example 141], the inhibition (commonly the relative decrease from the control value, in per cent) at 30 µM is 2%.
Same read-out and setting: in the case of `Nc1cccc(-c2c(Cl)nc(NC3CCC3)c(=O)n2CC(=O)NCc2ccc3c(N)nsc3c2)c1` [Example 145] it was 34%.
As for `N/N=C(/N)c1ccc(CNC(=O)Cn2c(-c3cccc(N)c3)c(Cl)nc(NC3CCC3)c2=O)cc1` [Example 148], the inhibition at 30 µM is 33%.
On the same count and under the same terms, the same measure for `Nc1cccc(-c2c(Cl)nc(NC3CCC3)c(=O)n2CC(=O)NCc2ccc(-c3noc(=O)[nH]3)cc2)c1` [Example 152]: 15%; for `Nc1cccc(-c2c(Cl)nc(NC3CCC3)c(=O)n2CC(=O)NCc2ccc(-c3n[nH]c(=O)[nH]3)cc2)c1` [Example 153]: 8%.
For the compound `NC1=NCCSc2cc(CNC(=O)Cn3c(-c4cccc(N)c4)c(Cl)nc(NC4CCC4)c3=O)ccc21` [Example 154], the inhibition at 30 µM amounted to 7%.
Same read-out and setting: the same measure for `CC(C)Nc1nc(Cl)c(-c2cccc(N)c2)n(CC(=O)Nc2ccc(S(=O)(=O)NC(=N)N)cc2)c1=O` [Example 155]: 4%; for `CC(C)Nc1nc(Cl)c(-c2cccc(N)c2)n(CC(=O)NCc2ccc(C(N)=S)cc2)c1=O` [Example 156]: 21%; for `C/N=C(/NC)c1ccc(CNC(=O)Cn2c(-c3cccc(N)c3)c(Cl)nc(NC3CCC3)c2=O)cc1` [Example 162]: 36%.

Staying with this assay, now noted: read-out: IC50 Trpysin II.
Regarding `CC(C)Nc1nc(Cl)c(-c2cc(N)cc(C(=O)NCc3ccc(Br)cc3)c2)n(CC(=O)NCc2ccc(C(=N)N)cc2)c1=O` [Example 128-8], the pIC50 was 6.98.
Regarding `C[C@@H](Nc1nc(Cl)c(-c2cccc(N)c2)n(CC(=O)NCc2ccc(C(=N)N)cc2)c1=O)C(=O)O` [Example 134], the pIC50 is 7.48.
For `C[C@H](Nc1nc(Cl)c(-c2cccc(N)c2)n(CC(=O)NCc2ccc(C(=N)N)cc2)c1=O)C(=O)O` [Example 135], the pIC50 was 5.80.

The values are drawn from patent US6908919B2, “Substituted polycyclic aryl and heteroaryl pyrazinones useful for selective inhibition of the coagulation cascade” (Pharmacia Corporation, priority 1999, dated 2005).
